The target in assay [1] is T1, matriptase (Homo sapiens, UniProt Q9Y5Y6). Briefly: Matriptase enzyme inhibition assay with chromogenic substrate Boc-QAR-pNA. It counts as biochemical.
In assay [2] the target is T1, matriptase. Conditions: as published before, cited from earlier work.

Protein sequences, listed by entry. Tags and fused reporters are not part of them. Residues count along the entry.
UniProt Q9Y5Y6, 615-855 limits assumed: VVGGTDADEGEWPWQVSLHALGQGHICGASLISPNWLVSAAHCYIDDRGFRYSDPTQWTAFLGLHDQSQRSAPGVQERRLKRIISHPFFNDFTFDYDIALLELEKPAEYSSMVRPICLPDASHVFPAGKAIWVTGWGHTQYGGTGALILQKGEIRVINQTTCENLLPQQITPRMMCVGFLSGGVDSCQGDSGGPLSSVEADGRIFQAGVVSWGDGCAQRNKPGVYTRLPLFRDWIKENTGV

Molecules are shown by their SMILES. Where two headings read alike, the source gives them in different places.

`CC[C@H](C)[C@@H]1NC(=O)[C@@H]2CCCN2C(=O)[C@@H]2CCCN2C(=O)[C@H]([C@@H](C)CC)NC(=O)[C@H](CO)NC(=O)[C@H](CCCCN)NC(=O)[C@H]([C@@H](C)O)NC(=O)[C@@H](NC(=O)[C@H](CCCNC(=N)N)NC(=O)CN)CSSC[C@@H](C(=O)N[C@@H](Cc2ccccc2)C(=O)N2CCC[C@H]2C(=O)N[C@@H](CC(=O)O)C(=O)O)NC1=O`: the “ΔBG(x) − ΔBG(SFTI-1[1, 14])” value on matriptase [1] (difference in free energy of binding/dissociation, ΔBG = −RTlnKi, pH 7.6 (Table 1)) amounted to 0 kcal/mol. The “ΔBG(x)-ΔBG(SFTI-1[1,14])” value at matriptase [1] (pH 7.6 (Table 2)) is 0 kcal/mol. Besides, the Ki on matriptase [2] (matriptase, pH 7.6 (Table 1)) is 703 nM; at matriptase [2] (read-out: Matriptase Ki, pH 7.6 (Table 2)) it was 703 nM.

In general, Ki refers to the equilibrium dissociation constant of an inhibitor or competing ligand from its target.

Values taken from patent publication US20160016998A1, “HIGH-AFFINITY MATRIPTASE INHIBITORS” (MERCK PATENT GMBH, priority 2013, published 2016).
